Data on two compounds can be found in US7259188B2, “Methods and pharmaceutical compositions for treatment of anti-estrogen resistant breast cancer using RXR modulators” (priority 1998, dated 2007).

Sequences of proteins named here, by UniProt entry; tags and fusion partners are left off.
UniProt P13631, whole entry, species assumed: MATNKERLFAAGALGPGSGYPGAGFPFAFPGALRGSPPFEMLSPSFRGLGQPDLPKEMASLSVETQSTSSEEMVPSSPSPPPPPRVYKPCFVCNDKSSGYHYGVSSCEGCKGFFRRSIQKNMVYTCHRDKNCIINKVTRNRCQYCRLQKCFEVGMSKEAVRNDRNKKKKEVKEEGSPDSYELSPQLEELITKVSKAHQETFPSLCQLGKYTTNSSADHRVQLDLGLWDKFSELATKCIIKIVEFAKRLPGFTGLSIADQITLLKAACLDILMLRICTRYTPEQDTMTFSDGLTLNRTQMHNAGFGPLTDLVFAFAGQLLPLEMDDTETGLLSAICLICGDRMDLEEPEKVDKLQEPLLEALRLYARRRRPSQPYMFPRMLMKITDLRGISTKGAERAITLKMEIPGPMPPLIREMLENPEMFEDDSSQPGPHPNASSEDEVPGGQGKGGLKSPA
UniProt P10826, whole entry, species assumed: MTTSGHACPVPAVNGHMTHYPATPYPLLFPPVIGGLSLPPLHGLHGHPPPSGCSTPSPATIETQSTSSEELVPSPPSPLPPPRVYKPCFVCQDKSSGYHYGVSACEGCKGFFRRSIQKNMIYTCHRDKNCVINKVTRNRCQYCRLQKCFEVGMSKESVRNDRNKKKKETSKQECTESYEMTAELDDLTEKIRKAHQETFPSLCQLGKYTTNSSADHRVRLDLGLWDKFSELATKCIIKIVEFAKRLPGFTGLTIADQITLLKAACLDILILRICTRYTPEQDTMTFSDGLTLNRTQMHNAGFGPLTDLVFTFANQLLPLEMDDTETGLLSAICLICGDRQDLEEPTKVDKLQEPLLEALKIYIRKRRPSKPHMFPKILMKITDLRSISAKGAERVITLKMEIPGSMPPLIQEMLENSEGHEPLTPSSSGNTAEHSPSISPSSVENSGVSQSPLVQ
UniProt P10276, whole entry, species assumed: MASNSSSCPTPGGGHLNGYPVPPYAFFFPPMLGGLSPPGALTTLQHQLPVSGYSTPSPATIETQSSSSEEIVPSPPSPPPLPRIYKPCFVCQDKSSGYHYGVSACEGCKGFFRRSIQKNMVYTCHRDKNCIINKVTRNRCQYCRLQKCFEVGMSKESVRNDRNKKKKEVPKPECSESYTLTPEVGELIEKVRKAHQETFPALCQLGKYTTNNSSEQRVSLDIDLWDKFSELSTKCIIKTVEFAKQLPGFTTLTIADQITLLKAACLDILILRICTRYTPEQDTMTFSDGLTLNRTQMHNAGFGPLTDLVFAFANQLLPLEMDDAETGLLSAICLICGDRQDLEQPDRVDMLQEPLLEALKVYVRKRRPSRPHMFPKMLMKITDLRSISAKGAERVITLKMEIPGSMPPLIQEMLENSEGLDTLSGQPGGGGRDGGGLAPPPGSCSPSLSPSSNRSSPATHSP

One assay deals with T1, RXRγ (UniProt P28705).
T1 sequence (P28705 1-463): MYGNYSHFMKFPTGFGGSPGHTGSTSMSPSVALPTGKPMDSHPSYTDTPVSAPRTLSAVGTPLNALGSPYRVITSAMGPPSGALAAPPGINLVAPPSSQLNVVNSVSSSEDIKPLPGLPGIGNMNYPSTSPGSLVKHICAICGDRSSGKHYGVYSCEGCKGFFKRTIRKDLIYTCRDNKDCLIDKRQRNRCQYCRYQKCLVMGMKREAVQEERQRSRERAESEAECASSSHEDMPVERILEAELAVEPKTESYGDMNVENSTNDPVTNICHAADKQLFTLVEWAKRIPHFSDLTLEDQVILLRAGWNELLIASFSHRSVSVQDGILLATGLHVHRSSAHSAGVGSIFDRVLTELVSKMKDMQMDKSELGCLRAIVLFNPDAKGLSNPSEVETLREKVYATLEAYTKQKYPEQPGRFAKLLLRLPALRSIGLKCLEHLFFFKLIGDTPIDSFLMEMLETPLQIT
The note with it: co-transfection assay.

The next assay addresses RARγ (Homo sapiens, UniProt P13631). The note with it: co-transfection assay.
In the next assay the target is RARβ (Homo sapiens, UniProt P10826). The following applies: co-transfection assay.
The target of a further assay is RARα (Homo sapiens, UniProt P10276). The following applies: co-transfection assay.
The next assay concerns the target T2, RXRβ (UniProt P28704).
T2 sequence (P28704 1-520): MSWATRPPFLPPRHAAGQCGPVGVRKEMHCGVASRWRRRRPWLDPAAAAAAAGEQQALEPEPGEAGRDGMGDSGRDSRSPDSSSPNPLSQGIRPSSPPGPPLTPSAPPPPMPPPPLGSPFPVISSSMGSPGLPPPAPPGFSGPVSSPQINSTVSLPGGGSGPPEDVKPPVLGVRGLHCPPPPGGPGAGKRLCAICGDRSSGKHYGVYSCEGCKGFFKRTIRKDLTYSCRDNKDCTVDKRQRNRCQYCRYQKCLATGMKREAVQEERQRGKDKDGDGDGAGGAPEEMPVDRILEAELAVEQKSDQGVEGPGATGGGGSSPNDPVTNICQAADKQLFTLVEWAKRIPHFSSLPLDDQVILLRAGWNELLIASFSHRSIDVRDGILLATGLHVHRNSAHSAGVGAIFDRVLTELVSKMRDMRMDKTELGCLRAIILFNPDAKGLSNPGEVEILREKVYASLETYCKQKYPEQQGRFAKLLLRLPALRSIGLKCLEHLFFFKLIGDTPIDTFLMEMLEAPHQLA
It counts as cell-based.

For `CC1=C(/C=C/C(C)=C\C=C\C(C)=C\C(=O)O)C(C)(C)CCC1` [9-cis-retinoic acid], the Efficacy was 140% at RXRγ, 120% at RARγ, 82% at RARβ and 100% on RARα.

`C=C(c1ccc(C(=O)O)cc1)c1cc2c(cc1C)C(C)(C)CCC2(C)C` [LGD1069]: the Efficacy at RXRβ turned out to be 102%.
